Experiment [1] addresses T1, human PD-L2 recombinant protein (Sinobiological, 10292-H08H-B) (human, UniProt Q9BQ51 20-219).
T1 construct: also called Human recombinant PD-L2
T1 sequence (looked up): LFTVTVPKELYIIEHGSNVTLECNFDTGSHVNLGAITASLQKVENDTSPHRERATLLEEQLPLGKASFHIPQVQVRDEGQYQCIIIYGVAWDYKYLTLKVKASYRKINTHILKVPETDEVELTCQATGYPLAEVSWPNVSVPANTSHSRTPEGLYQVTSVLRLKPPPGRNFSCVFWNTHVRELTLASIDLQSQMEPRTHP
The experiment can be described thus: Biacore: human PD-L2 immobilised on the chip, recombinant human PD-1 at 100 nM, no antibody.

The target in experiment [2] is T2, PD-L2 (Sinobiological, #10292-H02H) (UniProt Q9BQ51 20-219).
T2 sequence (looked up): T1 sequence (looked up)
The experiment in a line: Competition ELISA: PD-L2 immobilised at 2 ug/mL, biotinylated human PD1 at 0.66 ug/ml, peroxidase-labelled streptavidin, DO 450 nm.

B1: Recombinant hPD1-His (Sino Biologicals, reference […]-H08H) (receptor, human, UniProt Q15116 25-167, looked up)
chain: LDSPDRPWNPPTFSPALLVVTEGDNATFTCSFSNTSESFVLNWYRMSPSNQTDKLAAFPEDRSQPGQDCRFRVTQLPNGRDFHMSVVRARRNDSGTYLCGAISLAPKAQIKESLRAELRVTERRAEVPTAHPSPSPRPAGQFQ
notes: Bought reagent; also called human PD1 recombinant protein; PD-1 recombinant protein; not shown: histidine tail
Turning to B1, the binding result in experiment [1] is “binds”.

B2: biotinylated Human PD1 (AcroBiosystems, reference EP-101) (Fc fusion, UniProt Q15116 25-167, looked up)
chain: B1 chain
modifications: biotinylated
notes: also called Biotin-PD-1Fc; not shown: Fc part implied by the name 'Biotin-PD-1Fc'
For the molecule B2, in experiment [2], the binding result was “binds”.

(Values after patent US20210355225A1 (OSE IMMUNOTHERAPEUTICS, published 2021).)
